# OPERA 2.9 data: melting point values

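OPERA's authors assembled the values from existing databases and did not measure them anew. One number stands for a compound and property, with no spread given. Conditions of the individual experiments are not part of the data. The measured form (salt, isomer or mixture) is not always the one drawn. Some entries may be limits or estimates that an upstream database listed as plain numbers.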

Melting points are in °C. The databases behind each value are named after "via".

SMILES	melting point (°C)	via
O=C(O)c1ccc2c(c1)C(=O)N(Cc1ccco1)C2=O	174	OCHEM
O=c1[nH]nc(Br)c(=O)[nH]1	189	OCHEM
CCc1cccc2c(C=O)c[nH]c12	100	OCHEM
Cc1cc(C)c2c(N)nsc2n1	181	OCHEM
Cn1c(=O)n(CC(=O)O)c2ccccc21	203	OCHEM
CCCCCCCCCCCCOC(=O)CCCCCCCCCCC	29.3	eChemPortal
NS(=O)(=O)c1ccc(=S)[nH]c1	243	OCHEM
CC(=O)NCc1ccc(C(=O)O)cc1	189	OCHEM
O=C1CCc2cc(O)ccc2N1	240	OCHEM
CC1(CO)CC1CC1CC2CC2(C)C1(C)C (stereo unspecified)	-50.08	eChemPortal
N#CCCN(CCc1ccccc1)c1ccc(N=Nc2ccc([N+](=O)[O-])cc2C#N)cc1	167	eChemPortal
Cc1ccc(N(CC(C)O)CC(C)O)cc1 (stereo unspecified)	112	eChemPortal
Cc1c(S(C)(=O)=O)ccc(C(=O)O)c1Cl	229	eChemPortal
CS(=O)(=O)c1ccc(O)c(N)c1	87.5	PubChem
Cc1sc2ncnc(N)c2c1C	258	OCHEM
O=Cc1cnn(-c2ccccc2)n1	67	OCHEM
CCc1cc2c(cc1CC)CC(NC[C@H](O)c1ccc(O)c3[nH]c(=O)ccc13)C2	195	PubChem
Cc1ccc(S(=O)(=O)N2CCOCC2)cc1N	131	OCHEM
CCCCc1ccc(O)cc1O	51.5	eChemPortal
COC(=O)c1c(C)[nH]c(C(=O)O)c1C	207	OCHEM
O=C(O)C1(c2ccc(Br)cc2)CC1	156	OCHEM
CCC(=O)NC(C)C(=O)O (stereo unspecified)	90	OCHEM
NNC(=O)C1CCCC1	113	OCHEM
Cc1c(C(=O)O)oc2c1C(=O)CC(C)(C)C2	200	OCHEM
CCCCCCC(CCCC)COS(=O)(=O)[O-].[Na+] (stereo unspecified)	176	eChemPortal
O=C(O[C@H]1CO[C@H]2[C@@H]1OC[C@H]2OC(=O)c1ccc(O)cc1)c1ccc(O)cc1	187	eChemPortal
Cc1cccc(C)c1OP(=O)(Oc1ccc(-c2ccc(OP(=O)(Oc3c(C)cccc3C)Oc3c(C)cccc3C)cc2)cc1)Oc1c(C)cccc1C	184	eChemPortal
Cc1ccc(-c2nc(N)n[nH]2)cc1	207	OCHEM
CCN(CC)c1ccc(N=Nc2c(Br)cc([N+](=O)[O-])cc2[N+](=O)[O-])c(NC(C)=O)c1	180	eChemPortal
CCN(CC)c1ccc2nc3ccc(=[N+](CC)CC)cc-3oc2c1.O=C[O-]	163	eChemPortal
Cc1nc2ccccc2cc1C(=O)O	244	OCHEM
Cl[Si](Cl)(C1CCCC1)C1CCCC1	-13.9	eChemPortal
C#CCOC(=O)NCCCC	-1.05	eChemPortal
COC(=O)CCN(CCC(=O)OC)c1ccc(N=Nc2ccc([N+](=O)[O-])cc2[N+](=O)[O-])c(NC(C)=O)c1	162	eChemPortal
CC1(C)COCN1	-67.8	eChemPortal
c1ccc2c(NCCCN3CCOCC3)cccc2c1	72	eChemPortal
CC1=C(/C=C/C(C)=C\C[P+](c2ccccc2)(c2ccccc2)c2ccccc2)C(C)(C)CC(O)C1=O.[Br-] (stereo partly drawn)	163	eChemPortal
O=C(O)c1ccc(S(=O)(=O)N2CCOCC2)cc1	288	OCHEM
COc1cc(C(=O)O)ccc1OC1CCCC1	154	OCHEM
N#CCc1ccccc1C(=O)O	107	OCHEM
C/C=C/C1CCC(C2CCC(CCC)CC2)CC1 (stereo partly drawn)	44	eChemPortal
CO[Si](C)(CNc1ccccc1)OC	-100.2	eChemPortal

Repeated from above, the 6 entries with the highest melting point:

SMILES	melting point (°C)	via
O=C(O)c1ccc(S(=O)(=O)N2CCOCC2)cc1	288	OCHEM
Cc1sc2ncnc(N)c2c1C	258	OCHEM
Cc1nc2ccccc2cc1C(=O)O	244	OCHEM
NS(=O)(=O)c1ccc(=S)[nH]c1	243	OCHEM
O=C1CCc2cc(O)ccc2N1	240	OCHEM
Cc1c(S(C)(=O)=O)ccc(C(=O)O)c1Cl	229	eChemPortal

Data: OPERA 2.9 data sets, kmansouri/OPERA on GitHub.